Only a part is listed here, and it is no random draw. Calls of active or inactive are those of the source. The call rests on the fitted dose curve; in most records, active means well fitted activation curve with a large enough effect; inconclusive means small, poorly fitted or top-dose-only effect; inactive means flat fitted curve, though single readings scatter.
assay: qHTS of alpha-syn Inhibitors: NCGC Sytravon Library Screen; further: 0% is about no effect; conditions: S. cerevisiae alpha-synuclein toxicity rescue, BacTiter-Glo growth, 24 h; at 46.1 µM (top of the series)
Source text: The goal of this project is to identify new chemical probes capable of reversing the toxicity associated with the Parkinson disease-related protein, alpha-synuclein. Compounds will be selected on their ability to restore growth in yeast cells expressing toxic levels of alpha-synuclein. These compounds will provide a complementary approach to deciphering the tangled mechanisms of toxicity and protection that we have uncovered through genome-wide genetic screens and are beginning to uncover in a large-scale proteomics analysis with mass spectroscopy. To this end, a miniaturized assay was developed to be screened against the Molecular Libraries Small Molecule Repository (MLSMR) to discover alpha-synuclein inhibitors. […] The phenotype of interest will be that of an Activator and this screen is run against the NCGC Sytravon Library collection. NIH Chemical Genomics Center [NCGC] NIH Molecular Libraries Probe Centers Network [MLPCN] MLPCN Grant: NS060957 Assay Submitter (PI): Susan Lindquist, Whitehead Institute/MIT
Dispense 2.5 microL yeast galactose medium per 1536-well plate, pin compound, dispense 2.5 microL alpha-synuclein expressing yeast in galactose medium at OD600=0.02 (pregrown in raffinose medium to mid-log phase) per well, incubate for 24 hr at 30 deg C, and cell growth will be measured using 5 microL of Bactiter/Glo reagent to entire plate and read using Luminescence Protocol in ViewLux.

SMILES | growth rescue (activation)
CCCOc1cccc(C(=O)NCC2(N3CCOCC3)CCCCC2)c1 | inactive: -3.39%
COc1cc(C(=O)NCC2(N3CCCCC3)CCCCC2)ccc1OC(F)F | inactive: 7.99%
CCOc1ccc(C(=O)NCC2(N3CCOCC3)CCCCC2)cc1 | inactive: -5.24%
O=C(OC1CN2CCC1CC2)c1ccc([N+](=O)[O-])cc1 (configuration not stated) | inactive: 6.37%
Cc1ccc(C(=O)NCC2(N(C)C)CCCCC2)o1 | inactive: -0.391%
CCCCOc1ccccc1C(=O)NCC1(N2CCOCC2)CCCCC1 | inactive: -1.58%
CCCOc1ccc(C(=O)NCC2(N(C)C)CCCCC2)cc1OC | inactive: -0.0919%
O=C(NCC1(N2CCOCC2)CCCCC1)c1ccccc1Br | inactive: 2.59%
O=[N+]([O-])c1cc([N+](=O)[O-])c(Nc2ccc(Cl)cc2)c([N+](=O)[O-])c1 | inactive: -62%
O=C(NCC1(N2CCCCC2)CCCCC1)c1ccc(Cl)nc1 | inactive: -0.654%
COc1ccc(C(=O)NCC2(N3CCCCC3)CCCCC2)cc1 | inactive: 5.44%
COc1cc(C(=O)NCC2(N(C)C)CCCCC2)ccc1OC(F)F | inactive: -10%
O=C(NCC1(N2CCOCC2)CCCCC1)c1ccc(Cl)cc1 | inactive: -54%
O=C(NCC1(N2CCCCC2)CCCCC1)c1ccc(F)cc1 | inactive: -0.224%
COc1ccccc1C(=O)NCC1(N2CCOCC2)CCCCC1 | inactive: -9.54%
CC(C)(C)c1ccc(C(=O)NCC2(N3CCOCC3)CCCCC2)cc1 | inactive: -1.99%
Cc1ccccc1C(=O)NCC1(N(C)C)CCCCC1 | inactive: -6%
CN(C)C1(CNC(=O)c2ccc(C(C)(C)C)cc2)CCCCC1 | inactive: -14.2%
Cc1ccc(C(=O)NCC2(N3CCCCC3)CCCCC2)o1 | inactive: 10.2%
Cc1ccc(Nc2c([N+](=O)[O-])cc([N+](=O)[O-])cc2[N+](=O)[O-])cc1 | inactive: -13.7%
COc1cc(C(=O)NCC2(N3CCOCC3)CCCCC2)cc(OC)c1OC | inactive: 4.7%
COc1cc(OC)cc(C(=O)NCC2(N3CCOCC3)CCCCC2)c1 | inactive: 13.1%
CCc1cc(C(=O)NCC2(N3CCCCC3)CCCCC2)sc1C | inactive: 0.104%
O=C(NCC1(N2CCOCC2)CCCCC1)c1ccccc1 | inactive: -5.38%
O=C(NCC1(N2CCOCC2)CCCCC1)c1ccc([N+](=O)[O-])cc1 | inactive: 1.84%
O=C(NCC1(N2CCOCC2)CCCCC1)c1ccccc1[N+](=O)[O-] | inactive: -11.4%
N#Cc1ccc(C(=O)NCC2(N3CCCCC3)CCCCC2)cc1 | inactive: -1.07%
